From patent publication US7863438B2 (Yamasa Corporation, priority 2005, dated 2011)

Test: Stability of powdery PAPS salt at ambient temperature in a desiccator (HPLC determination of PAPS)
Details: powder 10 mg, desiccator (relative humidity: 10%), ambient temperature (23±2° C.), seven days

3′-phosphoadenosine 5′-phosphosulfate
Undecomposed PAPS (%): 95%
